Among the data in US20230416232A1, “PYRIMIDINE COMPOUNDS, COMPOSITIONS, AND MEDICINAL APPLICATIONS THEREOF” (Blueprint Medicines Corporation, priority 2020, published 2023) are GI50 values, retold here.

SMILES strings stand for the structures. Counter-ions that a name gives are not always drawn.

One assay has as its target EGFR (A767_dupASV) expressing Ba/F3 stable cell line (Homo sapiens, UniProt P00533, DUP767-769, cells depend on it). Nature of the assay: Cellular proliferation (Alamar Blue) assay, EGFR (A767_dupASV) Ba/F3. The assay is classed as cell-based. The following applies: 72 hr, read-out: A767 IC50. The method, then: (§1) Cell line details: • 1. EGFR(D770_N771insSVD) expressing Ba/F3 stable cell line • 2. EGFR (A767_dupASV) expressing Ba/F3 stable cell line • 3. A431 cells • 4. EGFR (H773insNPH) expressing Ba/F3 stable cell line • 5. HER2 (A775_G776insYVMA) expressing Ba/F3 stable cell line
(§2) • 1. Seed cells at 5000 for A431 and 15,000 cells for Ba/F3 in 100 μL/well in complete media (for A431: DMEM with 10% FBS and for Ba/F3 cells: RPMI with 10% FBS) in 96-well tissue culture plate. Leave outer wells without cells for background measurements. Incubate at 37 degree Celsius in 5% CO2 humidified incubator for 16-18 hours. • 2. Add 0.025 ml of 5X concentration compound dilution or DMSO control. Final compound concentration range is 10-0.0005 μM prepared in 3-fold serial dilutions. Incubate for 72 hr at 37 degree Celsius in 5% CO2 humidified incubator. • 3. Add 0.0125 ml Alamar Blue™ reagent to each well with multi-channel pipette and tap gently on each side of the plate to mix. Incubate for 3 hours at 37 degree Celsius in 5% CO2 humidified incubator. • 4. […] Data analysis was performed using XLfit 5.5.0.5.
In the case of `C=CC(=O)Nc1cccc(Nc2nc(Nc3cnn(C)c3)ncc2-c2ccc(N(C)C)c(F)c2)c1` [Compound 30, N-(3-((5-(4-(dimethylamino)-3-fluorophenyl)-2-((1-methyl-1H-pyrazol-4-yl)amino)pyrimidin-4-yl)amino)phenyl)acrylamide], the GI50 is 33 nM.
Still for that read-out and setting: for `C=CC(=O)Nc1ccc(F)c(Nc2nc(Nc3cnn(C)c3)ncc2-c2cnc(Cl)c(C)c2)c1` [Compound 48, N-(3-((5-(6-chloro-5-methylpyridin-3-yl)-2-((1-methyl-1H-pyrazol-4-yl)amino)pyrimidin-4-yl)amino)-4-fluorophenyl)acrylamide] the value was 12 nM; for `C=CC(=O)Nc1ccc(F)c(Nc2nc(Nc3cnn(C)c3)ncc2-c2ccc(Br)c(F)c2)c1` [Compound 87, N-(3-{[5-(4-bromo-3-fluorophenyl)-2-[(1-methyl-1H-pyrazol-4-yl)amino]pyrimidin-4-yl]amino}-4-fluorophenyl) prop-2-enamide], 33 nM.
As to `O=C(O)C(F)(F)F.[2H]C([2H])([2H])n1cc(Nc2ncc(-c3cnc(F)c(F)c3)c(Nc3cc(NC(=O)C=C)ccc3F)n2)cn1` [Compound 101, N-(3-((5-(5,6-difluoropyridin-3-yl)-2-((1-(methyl-d3)-1H-pyrazol-4-yl)amino)pyrimidin-4-yl)amino)-4-fluorophenyl)acrylamide], the GI50 came to 12 nM.
The same measure, in the same setting: the figure for `C=CC(=O)Nc1cccc(Nc2nc(Nc3cnn(C)c3)ncc2-c2cc(F)c(F)c(F)c2)c1` [Compound 148, N-(3-((2-((1-methyl-1H-pyrazol-4-yl)amino)-5-(3,4,5-trifluorophenyl)pyrimidin-4-yl)amino)phenyl)acrylamide] is 33 nM.
`[2H]C([2H])([2H])n1cc(Nc2ncc(-c3ccc(Br)c(F)c3)c(Nc3cc(NC(=O)C=C)ccc3F)n2)cn1` [Compound 169, N-(3-((5-(4-bromo-3-fluorophenyl)-2-((1-(methyl-d3)-1H-pyrazol-4-yl)amino)pyrimidin-4-yl)amino)-4-fluorophenyl)acrylamide]: the GI50 came out at 33 nM.

The target in the next assay is EGFR (H773insNPH) expressing Ba/F3 stable cell line (Homo sapiens, UniProt P00533, DUP771-773, cells depend on it). Nature of the assay: Cellular proliferation (Alamar Blue) assay, EGFR (H773insNPH) Ba/F3. The assay is classed as cell-based. The following applies: 72 hr, read-out: NPH IC50. The protocol: as §1, §2
On the technique in general: The colour change of resazurin is a common sign of viable cells or microbes.
As to `C=CC(=O)Nc1ccc(F)c(Nc2nc(Nc3cnn(C)c3)ncc2-c2cnc(F)c(F)c2)c1` [Compound 29, N-(3-((5-(5,6-difluoropyridin-3-yl)-2-((1-methyl-1H-pyrazol-4-yl)amino)pyrimidin-4-yl)amino)-4-fluorophenyl)acrylamide], the GI50 is 33 nM.
Consider `C=CC(=O)Nc1ccc(F)c(Nc2nc(Nc3cnn(C)c3)ncc2-c2cnc(Cl)c(C(F)(F)F)c2)c1` [Compound 44, N-(3-((5-(6-chloro-5-(trifluoromethyl)pyridin-3-yl)-2-((1-methyl-1H-pyrazol-4-yl)amino)pyrimidin-4-yl)amino)-4-fluorophenyl)acrylamidet], for which the GI50 was found to be 33 nM.
In the case of `C=CC(=O)Nc1ccc(F)c(Nc2nc(Nc3cnn(C)c3)ncc2-c2cnc(C(F)(F)F)c(F)c2)c1` [Compound 61, N-(4-fluoro-3-((5-(5-fluoro-6-(trifluoromethyl)pyridin-3-yl)-2-((l-methyl-1H-pyrazol-4-yl)amino)pyrimidin-4-yl)amino)phenyl)acrylamide], the GI50 turned out to be 33 nM.

The next assay has as its target HER2 (A775_G776insYVMA) expressing Ba/F3 stable cell line (Homo sapiens, UniProt P04626, DUP772-775, cells depend on it). Nature of the assay: Cellular proliferation (Alamar Blue) assay, HER2 (A775_G776insYVMA) Ba/F3. It is filed as cell-based. The following applies: 72 hr, read-out: YVMA IC50. The protocol:
as §1, §2
For `C=CC(=O)Nc1cccc(Nc2nc(Nc3cnn(C)c3)ncc2-c2ccc(Cl)c(F)c2)c1` [Compound 68, N-(3-((5-(4-chloro-3-fluorophenyl)-2-((1-methyl-1H-pyrazol-4-yl)amino)pyrimidin-4-yl)amino)phenyl)acrylamide], the GI50 turned out to be 35 nM.

In a further assay the target is EGFR(D770_N771insSVD) expressing Ba/F3 stable cell line (Homo sapiens, UniProt P00533, DUP768-770, cells depend on it). Nature of the assay: Cellular proliferation (Alamar Blue) assay, EGFR(D770_N771insSVD) Ba/F3. It is filed as cell-based. To be noted: 72 hr, read-out: D770 IC50. The protocol: as §1, §2
Take `C=CC(=O)Nc1ccc(F)c(Nc2nc(Nc3cnn(C)c3)ncc2-c2ccc(OC(F)(F)F)c(F)c2)c1` [Compound 14, N-(4-fluoro-3-((5-(3-fluoro-4-(trifluoromethoxy)phenyl)-2-((1-methyl-1H-pyrazol-4-yl)amino)pyrimidin-4-yl)amino)phenyl)acrylamide]: the GI50 came out at 33 nM.
Regarding `C=CC(=O)Nc1ccc(F)c(Nc2nc(Nc3cnn(C)c3)ncc2-c2cc(F)c(C(F)(F)F)c(F)c2)c1` [Compound 20, N-(3-((5-(3,5-difluoro-4-(trifluoromethyl)phenyl)-2-((1-methyl-1H-pyrazol-4-yl)amino)pyrimidin-4-yl)amino)-4-fluorophenyl)acrylamide trifluoroacetate], the GI50 is 33 nM.
For the compound `C=CC(=O)Nc1ccc(F)c(Nc2nc(Nc3cnn(C)c3)ncc2-c2cc(F)cc(Cl)c2)c1` [Compound 34, N-(3-((5-(3-chloro-5-fluorophenyl)-2-((1-methyl-1H-pyrazol-4-yl)amino)pyrimidin-4-yl)amino)-4-fluorophenyl)acrylamide], the GI50 amounted to 33 nM.
In the case of `C=CC(=O)Nc1ccc(F)c(Nc2nc(Nc3cnn(C)c3)ncc2-c2cnc(Cl)c(C)c2)c1` [Compound 48, N-(3-((5-(6-chloro-5-methylpyridin-3-yl)-2-((1-methyl-1H-pyrazol-4-yl)amino)pyrimidin-4-yl)amino)-4-fluorophenyl)acrylamide], the GI50 is 12 nM.
Regarding `C=CC(=O)Nc1ccc(F)c(Nc2nc(Nc3cnn(C)c3)ncc2-c2cnc(C(F)(F)F)c(F)c2)c1` [Compound 61, N-(4-fluoro-3-((5-(5-fluoro-6-(trifluoromethyl)pyridin-3-yl)-2-((l-methyl-1H-pyrazol-4-yl)amino)pyrimidin-4-yl)amino)phenyl)acrylamide], the GI50 came to 12 nM.
Regarding `C=CC(=O)Nc1cccc(Nc2nc(Nc3cnn(C)c3)ncc2-c2ccc(OC)c(F)c2)c1` [Compound 69, N-(3-((5-(3-fluoro-4-methoxyphenyl)-2-((1-methyl-1H-pyrazol-4-yl)amino)pyrimidin-4-yl)amino)phenyl)acrylamide], the GI50 turned out to be 12 nM.
Turning to `C=CC(=O)Nc1ccc(F)c(Nc2nc(Nc3cnn(C)c3)ncc2-c2ccc(Br)c(F)c2)c1` [Compound 87, N-(3-{[5-(4-bromo-3-fluorophenyl)-2-[(1-methyl-1H-pyrazol-4-yl)amino]pyrimidin-4-yl]amino}-4-fluorophenyl) prop-2-enamide], the GI50 is 12 nM.
Regarding `C=CC(=O)Nc1ccc(F)c(Nc2nc(Nc3cnn(C4COC4)c3)ncc2-c2ccc(Br)c(F)c2)c1` [Compound 94, N-(3-((5-(4-bromo-3-fluorophenyl)-2-((1-(oxetan-3-yl)-1H-pyrazol-4-yl)amino)pyrimidin-4-yl)amino)-4-fluorophenyl)acrylamide], the GI50 amounted to 33 nM.
